{
  "sequences": {"note": "Amino acid sequences for entries named in this document (tags omitted).", "UniProt P06730, whole entry": "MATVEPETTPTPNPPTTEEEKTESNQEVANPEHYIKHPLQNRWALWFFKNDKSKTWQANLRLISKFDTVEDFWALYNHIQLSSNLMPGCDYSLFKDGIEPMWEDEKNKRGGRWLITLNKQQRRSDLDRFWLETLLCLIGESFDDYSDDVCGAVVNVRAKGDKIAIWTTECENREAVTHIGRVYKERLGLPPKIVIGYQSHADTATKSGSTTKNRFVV"},
  "source": "paper PMC11123931",
  "about": "“The Synergistic Effect of N2 and N7 Modifications on the Inhibitory Efficacy of mRNA Cap Analogues” (Pharmaceuticals, 2024)",
  "biological_target": "T1, human eIF4E (heIF4E) (Homo sapiens, UniProt P06730)",
  "T1 construct": "The thermal stability of human full-length eIF4E (heIF4E) was analyzed; made in house",
  "experiment": "Thermal stabilization of heIF4E by differential scanning fluorimetry (DSF)",
  "conditions": "from ΔTm versus ligand concentration, single site ligand binding model, 1% DMSO, read-out: appK ± SE (apparent affinity to heIF4E)",
  "experimental": "The thermal stability of human full-length eIF4E (heIF4E) was analyzed using differential scanning fluorimetry (DSF), similar to that described previously for murine eIF4E [30]. heIF4E was expressed and purified as described earlier. The assay sample (20 μL) contained 5× SYPRO Orange (Sigma Aldrich, St. Louis, MO, USA) and 4 μM of heIF4E (final concentration) in HEPES/KOH with 100 mM KCl, 0.5 mM EDTA, and 1 mM DTT (pH 7.2). The tested compounds, as 10× stocks in 10% DMSO, were added to the final concentration at a range from 1 μM to 200 μM. DMSO at a 1% final concentration was then added to the control reactions without any compounds. […] The melting temperature (Tm) was determined as the minimum of the first negative derivative with the built-in CFX Manager Software (Bio-Rad).",
  "data": [
    {"smiles": "Cn1c[n+]([C@@H]2O[C@H](COP(=O)(O)OP(=O)([O-])OP(=O)(O)OC[C@H]3O[C@@H](n4cnc5c(=O)[nH]c(N)nc54)[C@H](O)[C@@H]3O)[C@@H](O)[C@H]2O)c2nc(N)[nH]c(=O)c21", "note": "[m^7GpppG]", "values": [
      {"measurement": "Kd", "value": "11.3 ± 1.09", "unit": "µM"}
    ]}
  ]
}
